Calls of active or inactive are those of the source.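 The calls were made as follows: active = compounds whose fitted half-maximal concentration in the cell-protection dose series is at or below a set limit; inactive = the rest.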
Tested on: H9c2 cardiomyocytes, 2-deoxyglucose stress, ATP luminescence, 2 h
Assay: H9c2 cell survival under 2-deoxyglucose stress – uHTS hits, dose response (AID 588780)

## NC(=O)c1ccsc1NC(=O)c1ccc([N+](=O)[O-])o1
  IC50: inactive: > 79 µM

## CCC(ONc1ccccc1C(F)(F)F)(C(=O)NN(C)C)c1ccccc1 (configuration not stated)
  IC50: inactive: 52.5 µM

Reference: PubChem BioAssay AID588780 (Sanford-Burnham Center for Chemical Genomics, 2011)
